Literature values in patent US20050244485A1, “Transdermal administration of hydrophilic drugs using a basic permeation enhancer composition” (priority 2003, published 2005).

Conditions: 0.1M aqueous solution, 25° C.; cited from earlier work

SMILES: OCCN(CCO)CCO
- pH of 0.1 M aqueous sol'n: 10.38
